Compound activity from PubChem.
A selection: hits, their analogues and other compounds. The true share with any hit is near 16%.
miR-21 reporter: miR-21 reporter, rising signal; HeLa miR-21 FLuc reporter, luciferase, 48 h; Potency, µM (top dose mostly 38.3 µM), without a hit: at the top dose reporter change, positive = more light; 340,000 tested, under 10 active; active = well fitted rising curve with a large enough effect; inconclusive = small, poorly fitted or top-dose-only effect; inactive = no such curve, though single readings can be large or run the other way;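 note: % of control where 0% means no effect; miR-21 action dims this reporter so a rising signal means less miR-21 action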
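HeLa cells stably expressing CMV-driven firefly luciferase with a downstream miR-21 binding sequence, endogenously expressing miR-21, were treated with titrations (up to about 40uM final) for 48 hours at 37 degree Celsius. Luciferase luminescence was read after lysis.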
TDP1 inh: TDP1 (human) enzyme inhibition | 0.28% of 350,000 active | Potency, µM (top dose mostly 130 µM), inactives show at the top dose activity change, negative = inhibition, hits mostly inhibitors | recombinant TDP1, AlphaScreen DNA substrate cleavage; further: potency means the concentration at half of the fitted maximal effect; on the % scale 0 is the no-effect control and ±100 the full control effect; nearly all actives have a fitted effect of over 40% in size
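Here, a 5' biotin and 3' phosphotyrosine-FITC DNA oligonucleotide reports Tdp1 activity: intact substrate bridges AlphaScreen beads, while cleavage leaves a 3' phosphate and drops signal. All incubations at room temperature.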
TDP1 cell noCPT: qHTS for Inhibitors of human tyrosyl-DNA phosphodiesterase 1 (TDP1): qHTS in cells in absence of CPT. DT40 Tdp1-/- hTDP1 cells, no CPT, ATP luminescence, 48 h. Potency, µM (top dose mostly 46.2 µM), for the others: at the top dose activity change, negative = growth inhibition, usual class: inhibitors. 15% of 420,000 active. AID 686978, 2013; further: potency means the concentration at half of the fitted maximal effect; on the % scale 0 is the no-effect control and ±100 the full control effect; nearly all actives have a fitted effect of over 55% in size
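Compound effects on proliferation are scored in DT40 Tdp1-/-;hTDP1 cells in the absence of CPT. ATP levels (CellTiter-Glo luminescence) are recorded after a ≥48 hr, 37 °C incubation.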
uPA surface inh: cell surface uPA generation inhibition. cell surface uPA generation assay, qHTS. 0.31% of 330,000 active. Potency, µM (highest dose often 38.3 µM), inactives show at the highest dose activity change, negative = inhibition, hits mostly inhibitors; active means well fitted inhibition curve with a large enough effect; inconclusive means small, poorly fitted or top-dose-only effect; inactive means no such curve, though single readings can be large or run the other way; tested in mouse RAW 264.7 cells; further: potency means the concentration at half of the fitted maximal effect; on the % scale 0 is the no-effect control and ±100 the full control effect; nearly all actives have a fitted effect of over 55% in size
DT40 TDP1 CPT: growth inhibition of DT40 Tdp1-/-;hTDP1 cells with camptothecin (screen for TDP1 inhibitors); 12% of 420,000 active; chicken DT40 Tdp1-/-;hTDP1 cells + 20 nM CPT, ATP luminescence, 48 h; Potency, µM (series often up to 46.2 µM), for the others: at the top dose activity change, negative = growth inhibition, actives largely listed as inhibitors; further: potency means the concentration at half of the fitted maximal effect; on the % scale 0 is the no-effect control and ±100 the full control effect; nearly all actives have a fitted effect of over 55% in size
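Cell growth measured by CellTiter-Glo luminescence after a minimum 48 h, 37 C compound exposure with 20 nM CPT in Tdp1-knockout DT40 cells stably expressing hTDP1, seeded 400/well; qHTS titration format.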
The depositor's hits bear a star; ? = inconclusive; . = not tested or not shown; [ ] = another dose, or the depositor's remark. Unless noted, the call rests on the fitted dose curve; in most records, active means well fitted curve in the direction sought with a large enough effect; inconclusive means small, poorly fitted or top-dose-only effect, or another doubt; inactive means no such curve, though single readings can be large; an effect the other way counts as inactive or inconclusive.

1. O=C(CN(C1CCCCC1)S(=O)(=O)c1ccccc1)NCc1cccnc1
2. O=C(NCc1cccnc1)C1CCN(C(=O)c2ccc(Cl)cc2Cl)CC1
3. C[N+]1(CC(=O)c2c3ccccc3cc3ccccc23)CCOCC1
4. Cc1ccc(N2CCN(C(=O)C3CCN(S(=O)(=O)c4ccc5c(c4)oc(=O)n5C)CC3)CC2C)cc1 (stereo unspecified)
5. Cc1ccc(C)c(N2CCN(C(=O)C3CCN(S(=O)(=O)c4cccc5nsnc45)CC3)CC2)c1
6. Cc1ccc(N2CCN(C(=O)C3CCN(S(=O)(=O)c4cccc5nsnc45)CC3)CC2C)cc1 (stereo unspecified)
7. O=C(C1CCN(S(=O)(=O)c2cccc3nsnc23)CC1)N1CCCCC1
8. Cc1ccc(C)c(N(C)C(=O)C2CCN(S(=O)(=O)c3cccc4nsnc34)CC2)c1

Assay by compound | 1 | 2 | 3 | 4 | 5 | 6 | 7 | 8
miR-21 reporter | -4.4% | -9.3% | . | 0.2% | 28.4% | . | -1.5% | 24.4%
TDP1 inh | 4.5%[56.1 µM] | 0.0% | . | 3.8% | 7.9% | . | 3.2% | -2.3%
TDP1 cell noCPT | -20.9% | -12.2% | 10µM* | 3.66µM* | 18.4µM* | 16.4µM* | 15.2% | 13µM*
uPA surface inh | 0.5% | -4.7% | . | . | -5.1% | -10.2% | -1.6% | .
DT40 TDP1 CPT | -17.8% | -14.6% | 15.8µM* | 5.8µM* | 18.4µM* | ? | -18.6% | 16.4µM*

9. O=C(O)c1ccc(CSc2nnc(Cc3ccccc3)o2)cc1
10. COc1cccc(-c2ccc(SCC(=O)N3CCc4ccccc43)nn2)c1
11. Cc1ccc(C(=O)NCC(=O)NC23CC4CC(CC(C4)C2)C3)cc1
12. CN(C)CCNC(=O)COc1ccc(C23CC4CC(CC(C4)C2)C3)cc1
13. Cc1ccc(CNC(=O)NC23CC4CC(CC(C4)C2)C3)cc1
14. O=C(CSc1ccccc1C(=O)NCc1ccccc1)NC12CC3CC(CC(C3)C1)C2
15. Cc1ccc(/C(O)=C/C(=O)C(=O)NC23CC4CC(CC(C4)C2)C3)cc1
16. CCN(CC)CCNC(=O)COc1ccc(OC)cc1

Assay by compound | 9 | 10 | 11 | 12 | 13 | 14 | 15 | 16
miR-21 reporter | -6.6% | -6.3% | -37.8% | 15.4% | -8.0% | 1.1% | 4.5% | 0.0%
TDP1 inh | -0.9% | 3.4% | 4.1% | 2.7% | -5.3% | 2.6% | 9.6% | 1.7%
TDP1 cell noCPT | 0.7% | . | 2.9% | 20.6µM* | ? | 29.1µM* | 13µM* | 10.9%
uPA surface inh | . | . | -10.2% | 2.8% | 8.5% | -8.1% | 8.5% | -2.7%
DT40 TDP1 CPT | -29.5% | . | -3.2% | 25.9µM* | 23.1µM* | ? | ? | 18.1%

17. CCCc1cc2c(c(NC(C)=O)n1)c(=O)oc1ccccc12
18. Cc1ccc(C23CC4CC(CC(NC(=O)NCCN(C)C)(C4)C2)C3)cc1
19. Cc1ccc(C23CC4CC(CC(C(=O)NN)(C4)C2)C3)cc1
20. Cc1cc(C)c(S(=O)(=O)Nc2ccc3c4c(cccc24)CC3)c(C)c1
21. O=S(=O)(Nc1ccc2c3c(cccc13)CC2)c1ccccc1
22. Cc1cc(C)c(S(=O)(=O)Nc2ccc3c(c2)CCC3)c(C)c1
23. O=S(=O)(Nc1cccc2ccccc12)c1ccccc1
24. Cc1ccc(S(=O)(=O)Nc2ccc3c4c(cccc24)CC3)c(C)c1

Assay by compound | 17 | 18 | 19 | 20 | 21 | 22 | 23 | 24
miR-21 reporter | -22.4% | -5.9% | 0.1% | 25.0% | . | ? | -4.2% | .
TDP1 inh | 3.0%[56.1 µM] | -0.9% | . | 4.1% | . | -2.8% | 0.8% | .
TDP1 cell noCPT | ? | 23.1µM* | -2.5% | 3.66µM* | 13µM* | 18.4µM* | -19.4% | 13µM*
uPA surface inh | -1.4% | -0.2% | -8.8% | -8.8% | . | -14.1% | -0.8% | -11.5%
DT40 TDP1 CPT | 0.3% | ? | -21.0% | -101.0% | ? | ? | -27.0% | 14.6µM*

25. O=C(Nc1ccccc1OC(F)(F)F)c1ccc([N+](=O)[O-])cc1
26. Cc1cc(=O)[nH]c2c1cnn2C(C)c1ccccc1 (stereo unspecified)
27. Cc1cc(C)c(Cn2c3ccccc3c3cnn(CC(=O)N4CCCCCC4)c(=O)c32)c(C)c1
28. O=C(Cn1ncc2c3ccccc3n(Cc3cccc(Cl)c3)c2c1=O)N1CCCCCC1
29. O=C(Cn1ncc2c3ccccc3n(Cc3cccc(Cl)c3)c2c1=O)N1CCCCC1
30. Cc1ccccc1Cn1c2ccccc2c2cnn(CC(=O)N3CCN(c4ccccc4)CC3)c(=O)c21
31. O=C(Cn1ncc2c3ccccc3n(Cc3ccccc3)c2c1=O)N1CCCCCC1
32. O=C(Cn1ncc2c3ccccc3n(Cc3ccc(F)cc3)c2c1=O)N1CCN(c2ncccn2)CC1

Assay by compound | 25 | 26 | 27 | 28 | 29 | 30 | 31 | 32
miR-21 reporter | -4.9% | -12.5% | 3.3% | 12.2% | 23.7% | -0.6% | -0.7% | 18.5%
TDP1 inh | 3.0% | . | -2.5% | 2.5% | 7.6% | 5.2% | 5.1% | 6.8%
TDP1 cell noCPT | ? | -17.5% | 23.1µM* | 20.6µM* | 11.6µM* | ? | ? | 16.4µM*
uPA surface inh | 0.9% | -10.9% | . | . | . | -5.9% | . | 0.2%
DT40 TDP1 CPT | -22.3% | -14.1% | 23.1µM* | 18.4µM* | 20.6µM* | ? | ? | 18.4µM*

33. CC1CCCC(NC(=O)COC(=O)/C=C/c2ccc(S(=O)(=O)N3CCOCC3)cc2)C1C (stereo unspecified)
34. COc1ccc2oc(=O)c(C(=O)N3c4ccccc4CC3C)cc2c1 (stereo unspecified)
35. Cc1oc2c(C)c3oc(=O)c(CCC(=O)N4C[C@H]5C[C@@H](C4)c4cccc(=O)n4C5)c(C)c3cc2c1C
36. Cc1coc2cc3oc(=O)c(CCC(=O)N4CCCCC4)c(C)c3cc12
37. Cc1oc2c(C)c3oc(=O)c(CCC(=O)N4CCCCC4)c(C)c3cc2c1C
38. Cc1cccc(C(=O)NCC(c2ccc(F)cc2)N2CCOCC2)c1 (stereo unspecified)
39. CC(C)NC(=O)C1(C)CCCN1C(=O)c1ccc2c(c1)C(C)(C)CCC2(C)C (stereo unspecified)
40. CCNC(=O)C1(C)CCN(C(=O)c2ccc3ccccc3c2)C1 (stereo unspecified)

Assay by compound | 33 | 34 | 35 | 36 | 37 | 38 | 39 | 40
miR-21 reporter | -2.6% | -0.9% | -5.7% | -35.8% | 9.7% | -5.6% | . | .
TDP1 inh | 6.2% | -3.4% | . | 8.6% | 2.3% | 0.0% | . | .
TDP1 cell noCPT | -21.0% | -6.3% | ? | 20.6µM* | 10.3µM* | 1.2% | 3.66µM* | 5.4%
uPA surface inh | -7.0% | . | 16.7% | . | . | 1.2% | . | .
DT40 TDP1 CPT | -17.2% | -26.6% | ? | 13µM* | 14.6µM* | 0.5% | 4.61µM* | 9.4%

41. COC(=O)c1ccc(C(=O)N2CCCCCC2(C)C(=O)NC(C)C)cc1 (stereo unspecified)
42. CCNC(=O)C1(C)CCN(C(=O)c2ccc(-c3ccccc3)cc2)C1 (stereo unspecified)
43. CCNC(=O)C1(C)CCCN(C(=O)c2ccc3sccc3c2)C1 (stereo unspecified)
44. CCNC(=O)C1(C)CCCN(C(=O)c2ccc3c(c2)C(C)(C)CCC3(C)C)C1 (stereo unspecified)
45. CCn1cc2nc(SCc3ccccc3Cl)n(Cc3ccc(OC)cc3)c(=O)c2n1
46. CCSc1nc2ccccc2c(=O)n1Cc1ccc(F)cc1

Assay by compound | 41 | 42 | 43 | 44 | 45 | 46
miR-21 reporter | . | . | . | . | 0.8% | 2.0%
TDP1 inh | . | . | . | . | 2.6% | -11.5%
TDP1 cell noCPT | -22.1% | ? | 2.0% | 6.51µM* | 14.6µM* | -27.1%
uPA surface inh | . | . | . | . | . | 2.6%
DT40 TDP1 CPT | ? | 16.4µM* | -12.3% | 5.8µM* | 25.9µM* | 0.1%
